AlphaSeq binding of Ab-14 heavy chain variants to a spike HR2 peptide

Reference: Engelhart et al. 2022, doi:10.1038/s41597-022-01779-4. File: FLAb, binding data.

All variants were tested on one target, the spike HR2 peptide PDVDLGDISGINAS (SARS-CoV-2).

Each scFv is VH, a (GGGGS)3 linker, VL, as in the parent Ab-14, and differs from it in the CDRs of the heavy chain only.
VH: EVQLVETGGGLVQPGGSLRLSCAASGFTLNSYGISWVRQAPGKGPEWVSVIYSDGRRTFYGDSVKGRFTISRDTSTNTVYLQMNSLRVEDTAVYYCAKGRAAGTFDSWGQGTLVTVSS
VL: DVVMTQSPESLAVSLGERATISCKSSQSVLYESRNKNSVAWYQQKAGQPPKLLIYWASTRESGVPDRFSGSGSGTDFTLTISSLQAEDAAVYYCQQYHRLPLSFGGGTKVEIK

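The starting antibody came from a phage panning campaign against this peptide. The library (AAYL49) carries one to three amino acid substitutions per variant, with no insertions or deletions. The assay is AlphaSeq: two haploid yeast populations carry antibody and antigen on their surface. The frequency of each diploid, read from paired DNA barcodes, reflects how well the two displayed proteins bind. Scores were corrected for input abundance and mapped to Kd with protein pairs of known affinity run in the same pool. There are three technical replicates.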

The parent's heavy chain CDRs are GFTLNSYGIS, VIYSDGRRTFYGDSVK, GRAAGTFDS; each variant's own CDRs replace them letter for letter.
The read-out is the apparent dissociation constant on a log10 scale (nM): the lower, the stronger.
"nd" means that the variant was in the library but no mating with the target was seen in that replicate; the authors take this as a sign of poor binding, and no number exists.
Empty control strains, which show no peptide, gave a signal in 15% of pairings with library AAYL49; the median was 4.06 and 95% of these signals were weaker than 2.83. No background was subtracted. The control count says in how many pairings with the empty strains this scFv gave a signal, with their mean in brackets.
For reference, the parent read 0.65 as the reference entry and 4.11 (one replicate of three) as a member of this library.

CDR-H1,CDR-H2,CDR-H3,log10 Kd (nM) by replicate,control signals
YMTLNSYCIS,VIYSDGRRTFYGDSVK,GRAAGTFDS,nd nd nd,4/9 (4.63)
GFTEMSYGIS,VIYSDGRRTFYGDSVK,GWAAGTFDS,nd 4.47 nd,2/9 (3.89)
GFTLNSYGIS,VIYSDGRRTFYGDCVK,GRPAATFDS,nd nd nd,2/9 (2.89)
GFTLNIYGIS,VMYSDGRRTFYGDSVK,GRAAGTGDS,nd nd nd,0/9
GFTLNSYGPS,VIYSMGRRYFYGDSVK,GRAAGTFDS,nd nd nd,2/9 (3.50)
AFTLNDYGIS,VIYSDGRRTQYGDSVK,GRAAGTFDS,4.21 2.70 5.23,3/9 (4.43)
GFTLNSYGIS,VIYSDGRRTFYGDSVK,GRASGFSDS,4.07 nd nd,3/9 (4.17)
GFTLNSYGIS,VIYSDGRRTFYSDSFK,GRAAGTFDM,2.87 2.25 2.61,1/9 (4.63)
TFTLNSYGIS,VIYDDGRRTFYGDSVK,GRVAGTFDS,nd nd nd,1/9 (3.67)
GFTLNSYGIS,VIYSEMRRTLYGDSVK,GRAAGTFDS,nd nd nd,0/9
GFTLNWYGIS,VIYSDGRRTSYGDSVK,FRAAGTFDS,nd nd nd,0/9
GKTLNSYGIS,VIYSDGRGTFYGDSVK,GRAANTFDS,6.43 nd 5.77,4/9 (4.20)
GFTCNSYGIS,VIYSDGTRTFYGESVK,GRAAGTFDS,nd nd nd,0/9
VFTLNSYGIS,VIYSDGRRTHYGDTVK,GRAAGTFDS,nd nd nd,0/9
GFTLNSYGIS,VIYSDGRRTFAGDSVK,GRAAGTFDS,4.14 3.11 3.24,3/9 (3.79)
GFTLNSYGIS,VIYSDGRRTFYGQSVK,GDAAGDFDS,nd nd 4.16,1/9 (3.54)
GFTLNSYGLS,VIYSWGRRTFKGDSVK,GRAAGTFDS,3.87 nd 4.38,2/9 (3.58)
GASLNSYGIS,VVYSDGRRTFYGDSVK,GRAAGTFDS,nd 3.21 nd,4/9 (3.96)
GFTLNSYGIS,VIYSDGRRTFYGDSVH,NRAAGMFDS,1.25 1.58 1.50,0/9
GFTYNSYGIS,VIYSDGRRTCYGDSVK,GRAAITFDS,nd nd nd,1/9 (4.64)
GFTLNSYGIS,VIYSDGRRTFYGISMK,GHAAGTFDS,nd 3.30 nd,2/9 (3.90)
GFTLNSYGIS,VIEDDGYRTFYGDSVK,GRAAGTFDS,6.30 nd nd,2/9 (4.52)
GFTLNSYGIS,VIYSDGRRTFYGISVK,GRAAGTDDN,nd nd nd,1/9 (2.92)
LFTLNSYGIS,VIYSVGRRTKYGDSVK,GRAAGTFDS,nd nd nd,0/9
WFTLNSVGIS,VIYSDGRRTFYGCSVK,GRAAGTFDS,nd nd nd,0/9
GFTLNSYGID,VIYSDGRRTFYGYSVK,GRAAGTFDS,nd nd nd,0/9
GFTDNSYGIS,VIYSEGRRTFYGDSHK,GRAAGTFDS,nd nd nd,0/9
GFTLNSRGIS,VILSDGRRTFYGDSVK,DRAAGTFDS,6.10 4.77 4.23,3/9 (4.23)
GFTLNAYQIS,VIYSDGRRTFYGDSVK,GRAAGTFDS,nd nd nd,3/9 (3.25)
GATLNSYPIS,VIYSDGRRTFYGDSVK,GRAAGTFWS,nd nd nd,0/9
CFTLNSYGIS,VIKSDGRTTFYGDSVK,GRAAGTFDS,nd nd nd,1/9 (3.96)
GFTFNSYGIS,VIYSDGRRTFYGDSVK,GRAAGKIDS,nd nd nd,0/9
GHTLNSYGIS,VIYSDGRRTFYADSEK,GRAAGTFDS,nd nd nd,2/9 (4.29)
GFTLNSYGIP,VIFSDGRRTRYGDSVK,GRAAGTFDS,3.76 nd nd,2/9 (4.25)
GFTLNVYGIS,VIYSDGRRFFYGDSVK,GRAAGTFDS,3.78 nd 5.71,2/9 (4.45)
RFTLMSYGIS,VIYSDGRNTFYGDSVK,GRAAGTFDS,3.38 3.10 2.61,0/9
GFTLNVYGGS,VIYSDGRRTFYGDSVK,GRAAGTFRS,nd nd nd,1/9 (4.26)